Test results taken from patent publication US12336995B2, “Combination therapies” (Mirati Therapeutics, Inc., priority 2018, dated 2025).

How the values were obtained:
CR6258 Tumor = test: In vivo PDX model, Compound 478 and Cetuximab (Table 5a); set-up: species or system nude/nude mice; conditions: Cetuximab 0.25 mg/kg i.p. every third day, single or combined
[1] = tested on: CR2528 cells (PDX models); test: In vivo PDX model, Compound 478 and Cetuximab (Table 5b); set-up: species or system nude/nude mice; conditions: Cetuximab 0.25 mg/kg i.p. every third day, single or combined
Procedure: The first group was administered vehicle only.

[2] = Day 11 post implant (treatment start), Compound 478 100 mg/kg p.o. daily
[3] = Day 14 post implant, from Day 11: Compound 478 100 mg/kg p.o. daily

Cetuximab: anti-EGFR monoclonal antibody approved for human clinical use (ImClone)
Average Tumor Volumes (CR6258 Tumor; [2]): 187.77 mm^3 | Average Tumor Volumes (CR6258 Tumor; [3]): 258.50 mm^3 | Average Tumor Volumes (CR6258 Tumor; Day 18 post implant, from Day 11: Compound 478 100 mg/kg p.o. daily): 321.93 mm^3 | Average Tumor Volumes (CR6258 Tumor; Day 21 post implant, from Day 11: Compound 478 100 mg/kg p.o. daily): 390.52 mm^3 | Average Tumor Volumes (CR6258 Tumor; Day 25 post implant, from Day 11: Compound 478 100 mg/kg p.o. daily): 503.75 mm^3 | Average Tumor Volumes (CR6258 Tumor; Day 28 post implant, from Day 11: Compound 478 100 mg/kg p.o. daily): 571.30 mm^3 | Average Tumor Volumes (CR6258 Tumor; Day 32 post implant, from Day 11: Compound 478 100 mg/kg p.o. daily): 652.14 mm^3 | Average Tumor Volumes (CR6258 Tumor; Day 35 post implant, from Day 11: Compound 478 100 mg/kg p.o. daily): 678.49 mm^3 | Average Tumor Volumes (CR6258 Tumor; Day 39 post implant, from Day 11: Compound 478 100 mg/kg p.o. daily): 768.49 mm^3 | Average Tumor Volumes (CR6258 Tumor; Day 42 post implant, from Day 11: Compound 478 100 mg/kg p.o. daily): 890.83 mm^3 | Average Tumor Volumes (CR6258 Tumor; Day 46 post implant, from Day 11: Compound 478 100 mg/kg p.o. daily): 975.10 mm^3 | Average Tumor Volumes (CR6258 Tumor; Day 49 post implant, from Day 11: Compound 478 100 mg/kg p.o. daily): 1233.04 mm^3 | Average Tumor Volumes [1, 2]: 266.03 mm^3 | Average Tumor Volumes [1, 3]: 450.64 mm^3 | Average Tumor Volumes ([1]; Day 17 post implant, from Day 11: Compound 478 100 mg/kg p.o. daily): 616.52 mm^3 | Average Tumor Volumes ([1]; Day 20 post implant, from Day 11: Compound 478 100 mg/kg p.o. daily): 1208.84 mm^3 | Average Tumor Volumes ([1]; Day 24 post implant, from Day 11: Compound 478 100 mg/kg p.o. daily): 1924.82 mm^3 | Average Tumor Volumes ([1]; Day 27 post implant, from Day 11: Compound 478 100 mg/kg p.o. daily): 2424.63 mm^3 | Average Tumor Volumes ([1]; Day 31 post implant, from Day 11: Compound 478 100 mg/kg p.o. daily): 2741.36 mm^3
